The chains behind the UniProt entries cited, without tags or fusion partners.
UniProt P41143, whole entry: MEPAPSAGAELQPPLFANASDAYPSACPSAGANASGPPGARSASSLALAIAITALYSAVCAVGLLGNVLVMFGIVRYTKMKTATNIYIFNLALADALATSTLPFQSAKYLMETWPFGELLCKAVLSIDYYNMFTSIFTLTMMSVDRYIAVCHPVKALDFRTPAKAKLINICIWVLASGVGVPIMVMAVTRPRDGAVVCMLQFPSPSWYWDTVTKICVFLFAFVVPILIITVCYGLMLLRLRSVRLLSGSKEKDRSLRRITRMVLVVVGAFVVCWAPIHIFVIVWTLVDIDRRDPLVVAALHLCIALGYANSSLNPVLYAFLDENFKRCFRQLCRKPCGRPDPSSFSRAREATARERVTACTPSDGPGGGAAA
UniProt P35372, whole entry: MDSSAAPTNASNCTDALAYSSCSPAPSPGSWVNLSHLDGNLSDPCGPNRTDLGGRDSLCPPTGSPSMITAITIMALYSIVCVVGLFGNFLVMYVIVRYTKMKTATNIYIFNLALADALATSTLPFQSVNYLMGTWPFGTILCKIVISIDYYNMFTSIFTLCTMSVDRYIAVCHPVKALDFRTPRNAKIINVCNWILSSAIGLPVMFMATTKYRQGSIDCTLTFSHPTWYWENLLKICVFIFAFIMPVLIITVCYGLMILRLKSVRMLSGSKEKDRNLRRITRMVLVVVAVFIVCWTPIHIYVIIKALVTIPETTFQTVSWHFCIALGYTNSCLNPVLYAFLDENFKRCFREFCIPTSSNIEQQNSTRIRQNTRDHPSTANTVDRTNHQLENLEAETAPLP

According to ChEMBL document CHEMBL3085655, “4β-Methyl-5-(3-hydroxyphenyl)morphan opioid agonist and partial agonist derived from a 4β-methyl-5-(3-hydroxyphenyl)morphan pure antagonist” (J Med Chem, 2013):

How the values were obtained:
[1] = target: T1, Delta-type opioid receptor (Homo sapiens, UniProt P41143); assay: Intrinsic agonist activity at human delta opioid receptor expressed in CHO cells by [35S]GTPgammaS binding assay; format: functional, cell-based
[2] = target: T1, Delta-type opioid receptor; assay: Displacement of [3H]DADLE from human delta opioid receptor expressed in CHO cells; format: cell-based
Procedure, shortened: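 Competition radioligand binding at the human receptors, run at the Psychoactive Drug Screening Program. Radioligands were [3H]DAMGO (MOR), [3H]DADLE (DOR) and [3H]U69,593 (KOR). Radioligand Kd determined by homologous competition binding with the receptor-specific radioligand. Ki values reported.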

Mu-type opioid receptor = Mu-type opioid receptor (Homo sapiens, UniProt P35372); assay: Antagonist activity at human mu opioid receptor expressed in CHO cells by [35S]GTPgammaS binding assay; format: functional, cell-based

| Compound | Agonist potency [1] [nM] | Ki [2] [nM] | Ke (Mu-type opioid receptor) [nM] |
| --- | --- | --- | --- |
| C[C@@H]1CN(CCCc2ccccc2)[C@H]2C[C@H](NCC3CC3)C[C@]1(c1cccc(O)c1)C2 | > 5000 | 43.2 | – |
| C[C@@H]1CN(CCCc2ccccc2)[C@@H]2CCC[C@]1(c1cccc(O)c1)C2 | > 5000 | – | 1.9 |
